# According to ChEMBL document CHEMBL3774368, “1,2,4-Triazolyl octahydropyrrolo[2,3-b]pyrroles: A new series of potent and selective dopamine D3 receptor antagonists” (Bioorg Med Chem, 2016):
# By UniProt entry, the sequences of proteins in these tests, tags left out. Where a name states a change or a piece, a line headed by the entry shows the natural chain unless it says otherwise.
# UniProt P35462, whole entry: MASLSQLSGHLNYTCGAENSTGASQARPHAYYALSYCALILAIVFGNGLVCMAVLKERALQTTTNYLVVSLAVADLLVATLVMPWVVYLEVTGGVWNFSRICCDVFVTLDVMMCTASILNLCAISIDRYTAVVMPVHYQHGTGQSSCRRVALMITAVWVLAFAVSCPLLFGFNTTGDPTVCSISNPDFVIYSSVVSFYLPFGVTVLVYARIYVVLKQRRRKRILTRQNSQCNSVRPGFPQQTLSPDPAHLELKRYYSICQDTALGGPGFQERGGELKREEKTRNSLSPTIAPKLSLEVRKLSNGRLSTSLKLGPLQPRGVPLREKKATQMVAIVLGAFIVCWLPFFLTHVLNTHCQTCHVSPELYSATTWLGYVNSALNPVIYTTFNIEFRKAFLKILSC
# UniProt P14416, whole entry: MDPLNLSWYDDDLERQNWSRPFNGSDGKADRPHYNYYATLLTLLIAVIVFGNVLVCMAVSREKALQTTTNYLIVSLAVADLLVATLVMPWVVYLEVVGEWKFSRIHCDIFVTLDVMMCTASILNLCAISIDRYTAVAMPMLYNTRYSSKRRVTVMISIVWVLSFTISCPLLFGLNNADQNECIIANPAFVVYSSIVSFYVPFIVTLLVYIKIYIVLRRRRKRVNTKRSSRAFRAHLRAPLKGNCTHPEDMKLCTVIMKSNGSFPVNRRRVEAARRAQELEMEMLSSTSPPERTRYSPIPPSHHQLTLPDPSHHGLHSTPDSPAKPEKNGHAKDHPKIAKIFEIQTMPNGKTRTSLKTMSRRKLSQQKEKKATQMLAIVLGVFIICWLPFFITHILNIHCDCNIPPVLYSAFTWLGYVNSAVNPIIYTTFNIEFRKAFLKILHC
# UniProt Q12809: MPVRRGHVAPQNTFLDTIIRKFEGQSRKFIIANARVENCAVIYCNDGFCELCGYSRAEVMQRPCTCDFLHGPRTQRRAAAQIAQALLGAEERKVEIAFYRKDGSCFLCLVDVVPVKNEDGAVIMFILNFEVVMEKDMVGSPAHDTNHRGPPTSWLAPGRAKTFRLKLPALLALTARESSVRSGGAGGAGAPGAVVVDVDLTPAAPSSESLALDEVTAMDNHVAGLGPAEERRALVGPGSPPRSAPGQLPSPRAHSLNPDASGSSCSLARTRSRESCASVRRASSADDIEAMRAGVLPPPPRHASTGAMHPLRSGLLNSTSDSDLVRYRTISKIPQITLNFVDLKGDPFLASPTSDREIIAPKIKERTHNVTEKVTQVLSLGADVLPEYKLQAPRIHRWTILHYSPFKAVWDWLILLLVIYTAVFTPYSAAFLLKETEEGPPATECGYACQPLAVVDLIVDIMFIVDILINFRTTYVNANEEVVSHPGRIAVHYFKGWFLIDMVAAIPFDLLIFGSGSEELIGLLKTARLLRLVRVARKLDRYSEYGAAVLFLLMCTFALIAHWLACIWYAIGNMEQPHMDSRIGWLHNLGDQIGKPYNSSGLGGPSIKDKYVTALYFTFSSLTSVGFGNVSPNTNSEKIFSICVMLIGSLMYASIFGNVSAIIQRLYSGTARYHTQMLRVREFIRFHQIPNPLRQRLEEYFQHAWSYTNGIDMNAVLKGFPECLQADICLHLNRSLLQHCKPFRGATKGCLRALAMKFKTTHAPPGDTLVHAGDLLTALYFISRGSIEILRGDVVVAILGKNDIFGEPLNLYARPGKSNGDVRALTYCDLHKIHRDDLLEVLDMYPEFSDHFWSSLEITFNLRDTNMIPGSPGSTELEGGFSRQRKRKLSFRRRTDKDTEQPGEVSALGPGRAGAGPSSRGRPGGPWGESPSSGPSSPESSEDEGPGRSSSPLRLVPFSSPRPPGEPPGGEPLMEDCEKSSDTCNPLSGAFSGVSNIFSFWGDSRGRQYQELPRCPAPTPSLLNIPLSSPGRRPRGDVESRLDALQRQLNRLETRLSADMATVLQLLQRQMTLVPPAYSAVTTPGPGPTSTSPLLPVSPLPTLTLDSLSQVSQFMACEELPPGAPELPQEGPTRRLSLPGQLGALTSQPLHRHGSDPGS
# Target: T1, D(3) dopamine receptor (Homo sapiens, UniProt P35462)
# Test: Antagonist activity at human dopamine D3 receptor expressed in CHO-K1 cell membranes after 90 mins by [35S]GTP-gamma-S binding assay in presence of 3 nM quinelorane
row,Ki [µM],Compound
1,0.002,Cc1ncoc1-c1nnc(SCCCN2CC3CCN(c4ccccc4)C3C2)n1C (stereo in doubt; 6b)

# Target: D(2) dopamine receptor (Homo sapiens, UniProt P14416)
# Test: Displacement of [3H]-spiperone from human dopamine D2 receptor expressed in CHO-K1 cell membranes after 120 mins by liquid scintillation counter method
row,Ki [µM],Compound
1,0.398,COc1cccc(N2CCC3CN(CCCSc4nnc(-c5cnccn5)n4C)CC32)c1 (racemic)
2,0.251,Cn1c(SCCCN2CC3CCN(c4ccccc4)C3C2)nnc1C1CCOCC1 (racemic)
3,0.1,Cn1c(SCCCN2CC3CCN(c4cccc(OC(F)(F)F)c4)C3C2)nnc1-c1cnccn1 (racemic)
4,0.794,Cn1c(SCCCN2CC3CCN(c4ccc(C(F)(F)F)cc4)C3C2)nnc1-c1cccnc1 (racemic)
5,0.794,Cn1c(SCCCN2CC3CCN(c4ccccc4)C3C2)nnc1C1CCOCC1 (stereo in doubt; 62a)
6,0.2,Cn1c(SCCCN2CC3CCN(c4ccccc4)C3C2)nnc1C1CCOCC1 (stereo in doubt; 62b)

# Target: T1, D(3) dopamine receptor
# Test: Displacement of [3H]-spiperone from human dopamine D3 receptor expressed in CHO-K1 cell membranes after 90 mins by liquid scintillation counter method
row,Ki [µM],Compound
1,0.01,Cn1c(SCCCN2CC3CCN(c4ccc(F)cc4)C3C2)nnc1-c1cc[nH]c(=O)c1 (racemic)
2,0.00316,Cn1cc(-c2nnc(SCCCN3CC4CCN(c5ccc(C(F)(F)F)cc5)C4C3)n2C)cn1 (racemic)
3,0.002,Cn1c(SCCCN2CC3CCN(c4ccc(C(F)(F)F)cc4)C3C2)nnc1-c1nccs1 (racemic)
4,0.0126,Cc1ncoc1-c1nnc(SCCCN2CC3CCN(c4ccc(OC(F)(F)F)cc4)C3C2)n1C (racemic)
5,0.000316,Cn1c(SCCCN2CC3CCN(c4ccc(F)cc4)C3C2)nnc1C1CCOCC1 (racemic)
6,0.000398,Cn1c(SCCCN2CC3CCN(c4ccc(F)cc4)C3C2)nnc1C1CCOCC1 (stereo in doubt; 63a)
7,0.000398,Cn1c(SCCCN2CC3CCN(c4ccc(F)cc4)C3C2)nnc1C1CCOCC1 (stereo in doubt; 63b)

# Target: Voltage-gated inwardly rectifying potassium channel KCNH2 (Homo sapiens, UniProt Q12809)
# Test: Inhibition of human ERG tail current expressed in HEK293 cells after 5 mins by patch clamp assay
row,Compound,IC50 [µM]
1,Cc1ncoc1-c1nnc(SCCCN2CC3CCN(c4ccc(F)cc4)C3C2)n1C (stereo in doubt; 9b),0.794
